Experimental data as given in patent US11046709B2, “Fused 1,4-diazepines as BET bromodomain inhibitors” (THE REGENTS OF THE UNIVERSITY OF MICHIGAN, priority 2017, dated 2021).

Biological target: recombinant BRD4 BD2 (Homo sapiens, UniProt O60885)
Assay: FP protein saturation experiment of the fluorescent probe, BRD4 BD2
Conditions: read-out: Kd of the fluorescent probe to BRD4 BD2, probe 1.5 nM
Method: Fluorescence Polarization (FP) competitive binding studies were carried out using a FAM labeled fluorescent probe, see, e.g., Cpd. No. 350 of US 2014/0256706, to determine binding affinities of representative Compounds of the Disclosure for recombinant BRD4 BD1 and BRD4 BD2 proteins. Equilibrium dissociation constants (Kd) values of the fluorescent probe to BRD4 BD1 and BD2 proteins were determined from protein saturation experiments by monitoring the total fluorescence polarization of mixtures composed with the fluorescent probe at a fixed concentration and proteins with increasing concentrations up to full saturation. Serial dilutions of testing proteins were mixed with the fluorescent probe to a final volume of 200 μl in the assay buffer (100 mM phosphate buffer, pH=6.5, 0.01% Triton X-100 (Sigma, 282103) being added right before assays). Final fluorescent probe concentration was 1.5 nM for both proteins. Plates were incubated at room temperature for 30 minutes with gentle shaking to assure equilibrium. FP values in millipolarization units (mP) were measured using the Infinite M-1000 plate reader (Tecan U.S., Research Triangle Park, N.C.) in Microfluor 1 96-well, black, round-bottom plates (Thermo Scientific, Waltham, Mass.) at an excitation wavelength of 485 nm and an emission wavelength of 530 nm. […]

Kd: 3 nM
SMILES: COc1cc2c(cc1-c1c(C)noc1C)[nH]c1nc(C(=O)NC3CCN(CCCNC(=O)c4ccc(-c5c6ccc(=O)cc-6oc6cc(O)ccc56)c(C(=O)O)c4)CC3)nc(-c3ccnc4ccc(F)cc34)c12
